# AlphaSeq binding of Ab-14 light chain variants to a spike HR2 peptide

Values reported by Li et al. 2023, doi:10.1038/s41467-023-39022-2 (FLAb copy).

All variants were tested on one target, the spike HR2 peptide PDVDLGDISGINAS (SARS-CoV-2).

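Phage display of a naive human antibody library on the peptide gave the parent. Designed CDR sequences, proposed from the first random library and measured here. Several design methods are mixed in this list. The assay is AlphaSeq: two haploid yeast populations carry antibody and antigen on their surface. Mating (16 h, 30 °C) was followed by selection of diploids and sequencing of their barcodes. Read counts were normalised to the haploid input and turned into Kd by a linear fit to BCL2-family pairs of known affinity, for each replicate. There are six technical replicates.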

Each scFv is VH, a 15-residue (Gly4Ser)3 linker, VL, as in the parent Ab-14, and differs from it in the CDRs of the light chain only.
VH: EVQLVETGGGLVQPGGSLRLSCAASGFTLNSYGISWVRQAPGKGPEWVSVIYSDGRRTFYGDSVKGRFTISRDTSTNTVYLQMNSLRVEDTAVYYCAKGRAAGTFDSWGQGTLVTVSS
VL: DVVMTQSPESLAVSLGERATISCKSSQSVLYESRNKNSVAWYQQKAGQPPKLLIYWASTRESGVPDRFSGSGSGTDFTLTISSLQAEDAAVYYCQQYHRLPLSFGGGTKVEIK

The parent's light chain CDRs are KSSQSVLYESRNKNSVA, WASTRES, QQYHRLPLS; each variant's own CDRs replace them letter for letter. Variants here have more than six changes. The read-out is the apparent dissociation constant on a log10 scale (nM): the lower, the stronger. Replicates are averaged; those with no signal do not enter the mean. An entry "no signal" has no value in the source: the pair was not observed among the diploids in any replicate. This suggests poor binding but is not conclusive. The parent sequence was in this pool as ten entries: three were never detected, three once, and four in most replicates, with averages from 0.34 to 2.37.

- IVSQLMLWGYHAKNSIA, EAKLRLN, QQYDRLPLI: no signal (0 of 6 replicates; controls 1 of 18)
- QLSMNLTIYDQEQGNVA, HGEMRTE, QQYHKLPLI: 2.52 (6 of 6 replicates; controls 0 of 18)
- ALGDVTRMESNKKNSIA, DMSNREE, QQYHRLPLS: -0.17 (6 of 6 replicates; controls 1 of 18)
- KIGMTLNTLMHTKNNVA, DLVTREN, QQYHRLPLS: 2.32 (5 of 6 replicates; controls 0 of 18)
- MIEIIPDGYMEMRSNVA, DTSLVRM, QQYARLPLM: 1.91 (6 of 6 replicates; controls 0 of 18)
- QIQGKLQHGGNQGANVA, QGVESKN, QQYYTLPLT: 1.12 (6 of 6 replicates; controls 1 of 18)
- MISQMFEGLQTSKNPVA, QVSTREE, QQYHRLPLS: 1.61 (5 of 6 replicates; controls 0 of 18)
- MISQLYQMGSFAINSVA, QASLRNE, QQYDRLPLM: 1.42 (6 of 6 replicates; controls 0 of 18)
- TISGVMQSMSHSKSNVA, EVSMRLD, QQYVRLPLA: 2.14 (1 of 6 replicates; controls 0 of 18)
- KIQQSGYYEDRNKNSVA, SASTRCP, QQYHRLPLS: 0.17 (6 of 6 replicates; controls 3 of 18)
- KVQNHSSGTLNDKNAVA, EDTEVAV, QQYVRLPLI: 1.24 (1 of 6 replicates; controls 0 of 18)
- HITYGMYVAGRHHSSIA, QAETRAK, QQYDRLPLS: 0.97 (6 of 6 replicates; controls 1 of 18)
- MMSQMFEGLSTQKNPVA, QVSTREE, QQYHRLPLS: 0.85 (6 of 6 replicates; controls 0 of 18)
- HVSQTLTDEMYREYNVA, ETNHVEE, QDYFRLPLI: no signal (0 of 6 replicates; controls 0 of 18)
- IMSEGQERDAARLNNIA, DHYTRAT, QQYARLPLH: 1.23 (6 of 6 replicates; controls 1 of 18)
- FFSLIQDSYGEANNSIA, ERNTKAP, QQYSRLPLV: 2.21 (6 of 6 replicates; controls 0 of 18)
- QMTGQLFEQGNRSEPIA, HESMKET, QQYAQLPLT: 2.31 (6 of 6 replicates; controls 3 of 18)
- KLKYQADHYGMQWNNVA, QADIRAP, QQYNKLPLN: 0.08 (6 of 6 replicates; controls 0 of 18)
- TLGDVTRQESNKKSSIA, DMSNRAA, QQYHRLPIS: 0.47 (6 of 6 replicates; controls 1 of 18)
- KLSQSVLGQWRNFNSVA, HASTREQ, QDYHRLPLS: 0.50 (6 of 6 replicates; controls 0 of 18)
- KLGGESYNSTYAMDAVA, DQNTAYE, QHYSRLPLT: no signal (0 of 6 replicates; controls 0 of 18)
- KIGHTLNTLYEKANNVA, DLVERED, QQYFRLPLS: 0.50 (6 of 6 replicates; controls 1 of 18)
- QLSLMLNDMDTRMWNVA, EGNQAKE, QDYHRLPLM: 2.75 (3 of 6 replicates; controls 0 of 18)
- MISQLMNLGQFAINSVA, QASIRNQ, QQYDRLPLA: 1.81 (5 of 6 replicates; controls 0 of 18)
- NFYMDAAEFVNEDESIA, DAEISYQ, QQYHRLPLV: 2.31 (2 of 6 replicates; controls 0 of 18)
- MISQVLNTLTKTGNNVA, DLTEREV, QQYFRLPLS: 0.87 (6 of 6 replicates; controls 1 of 18)
- NIYQAMHTLSQMKDNVA, DVNERGS, QQYFRLPLS: 0.40 (6 of 6 replicates; controls 1 of 18)
- IVSQLMLWGWHAKNSIA, EAQTRVN, QQYDRLPLM: no signal (0 of 6 replicates; controls 0 of 18)
- ALTFPEESVDHHMNNIA, STEKLCM, QQYARLPLS: 0.98 (6 of 6 replicates; controls 0 of 18)
- QLAVDRLQEYKMGDAIA, GKTTRED, QQYARLPLS: 0.54 (6 of 6 replicates; controls 1 of 18)
- MISQLINMGSFAINSVA, QASLRNE, QQYDRLPLM: 2.45 (6 of 6 replicates; controls 1 of 18)
- MFPQEVMYESHFKNNVA, QTSTREP, QQYDHLPLS: 0.38 (6 of 6 replicates; controls 3 of 18)
- MISQLYNMGQFAINSVA, QASTRNE, QQYDRLPLI: 1.76 (6 of 6 replicates; controls 0 of 18)
- KSMQEWEYQSRNKNSVA, HASLRES, QQYHRLPLS: 0.72 (6 of 6 replicates; controls 2 of 18)
- HVEHDWLLSNATMKAVA, NGATLAD, QQYGRLPLS: 0.62 (6 of 6 replicates; controls 2 of 18)
- TISQVMNTLTRNTNNVA, DLTNRED, QQYFRLPLS: 0.00 (6 of 6 replicates; controls 2 of 18)
- KLSWDDMSHFNTRSAVA, DMTMRVH, QQYNRLPLD: 0.89 (6 of 6 replicates; controls 0 of 18)
- KSSQSQDYGDRNSNSVA, NASQREH, QQYHRLPLS: 0.00 (6 of 6 replicates; controls 1 of 18)
- KLQQSMLYESRWWNSVA, DASVRCD, QQYHRLPLS: 0.50 (6 of 6 replicates; controls 1 of 18)
- TISQMFLGESRNRNSVA, QAQTRES, QSYDRLPLS: 1.31 (6 of 6 replicates; controls 1 of 18)
- KLDMNELGQSQNSSHVA, GSANKCQ, QQYFRLPLS: 1.20 (6 of 6 replicates; controls 0 of 18)
- KLYQATAMTSRMRNNVA, DLNERER, QQYFRLPLS: 2.19 (2 of 6 replicates; controls 0 of 18)
- KLVQFMNRGTHHTSNIA, DAQNRID, QQYARLPLA: 1.50 (4 of 6 replicates; controls 0 of 18)
- SLHMYTLGEKNANNSIA, EKSYRAI, QQYSHLPLC: 1.68 (6 of 6 replicates; controls 1 of 18)

The 7 strongest on average among those seen in every replicate, once more:

CDR-L1	CDR-L2	CDR-L3	log10 Kd (nM), mean	detected	control signals
ALGDVTRMESNKKNSIA	DMSNREE	QQYHRLPLS	-0.17	6 of 6	1 of 18
TISQVMNTLTRNTNNVA	DLTNRED	QQYFRLPLS	0.00	6 of 6	2 of 18
KSSQSQDYGDRNSNSVA	NASQREH	QQYHRLPLS	0.00	6 of 6	1 of 18
KLKYQADHYGMQWNNVA	QADIRAP	QQYNKLPLN	0.08	6 of 6	0 of 18
KIQQSGYYEDRNKNSVA	SASTRCP	QQYHRLPLS	0.17	6 of 6	3 of 18
MFPQEVMYESHFKNNVA	QTSTREP	QQYDHLPLS	0.38	6 of 6	3 of 18
NIYQAMHTLSQMKDNVA	DVNERGS	QQYFRLPLS	0.40	6 of 6	1 of 18

In the paper, a design with two or fewer of six values counts as a poor binder. Empty control strains, which show no peptide, gave a signal in 4% of pairings with all light chain designs; the median was 2.64 and 95% of these signals were weaker than 1.59. No background was subtracted. Also given: how often the same scFv was detected with the empty control strains. A sequence measured in both rounds can read differently, since the two assays cover different ranges.